{"source": "patent US10125100B2", "about": "“Kinase inhibitors” (Respivert Limited, priority 2014, dated 2018)", "test": "Hydrolytic stability study", "assay_type": "physicochemical", "details": "DMSO/water (3:1), 1 mg/mL, 60° C., 307 min", "protocol": "Chemical stability of compounds of the invention was assessed in a mixture of DMSO and water (3:1) at a test compound concentration of 1 mg/mL.\nGeneral HPLC Procedure • Agilent, Waters X-Select C18, 2.5 μm, 4.6×30 mm column, 4 min method, 5-95% MeCN/water (0.1% formic acid). Flow rate 2.5 mL/min. Column Oven Temperature 40° C. Detection 254 nm.\nSample Preparation • A 1.0 mg sample of test compound was dissolved in 750 μL of DMSO. Water (250 μL) was added slowly, ensuring no precipitation occurred.\nRecording Stability • A 50 μL aliquot of the test solution was removed and analysed in duplicate by 5 μL HPLC injections. The peak area for the test compound was recorded following manual integration of the corresponding UV trace. • The test solution was heated to 60° C., with stirring, and 50 μL aliquots removed for HPLC analysis at 5 and 24 h timepoints.", "data": [{"molecule": "COc1cc(Nc2cc(Oc3ccc(NC(=O)Nc4cc(C(C)(C)C)cc(NS(C)(=O)=O)c4OC)c4ccccc34)ccn2)ccc1P(C)(=O)O", "note": "[Example 44, (4-((4-((4-(3-(5-(tert-Butyl)-2-methoxy-3-(methylsulfonamido)phenyl)ureido)naphthalen-1-yl)oxy)pyridin-2-yl)amino)-2-methoxyphenyl)(methyl)phosphinic acid]", "values": [{"measurement": "% Parent Remaining", "result": 102, "unit": "%"}]}]}
